Literature values, collected in paper PMC9781087, “Discovery of New Microbial Collagenase Inhibitors” (Life, 2022).

Test system: normal fibrobast cells
Details: 1 μM concentration; cited from earlier work

In the case of `O=C1C=CC(=O)c2c(O)cccc21` [Juglone, juglone], the “toxicity on normal fibroblast cells” value is given as “no significant effect”.
